# scFv variants of Ab-14 (heavy chain) against a SARS-CoV-2 spike peptide

Values reported by Li et al. 2023, doi:10.1038/s41467-023-39022-2 (FLAb copy).

Antigen: PDVDLGDISGINAS, a 14-residue peptide of the SARS-CoV-2 spike HR2 region.

Ab-14 is the parent antibody, in scFv form: VH, then three GGGGS repeats, then VL. The light chain is unchanged in all variants.
VH: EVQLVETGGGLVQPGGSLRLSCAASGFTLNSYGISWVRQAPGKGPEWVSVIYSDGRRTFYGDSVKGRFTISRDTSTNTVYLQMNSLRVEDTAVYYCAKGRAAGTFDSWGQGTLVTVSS
VL: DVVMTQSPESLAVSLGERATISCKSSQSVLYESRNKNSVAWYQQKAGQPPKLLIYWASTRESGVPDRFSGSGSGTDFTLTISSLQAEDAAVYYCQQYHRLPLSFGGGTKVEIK

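The parent was found by panning a naive human phage display library on the peptide. Designed CDR sequences, proposed from the first random library and measured here. Several design methods are mixed in this list. The scFvs were displayed on barcoded MATa yeast, the peptide on MATalpha yeast. Binding brings cells together so that they mate, and sequencing counts the barcode pairs among the diploids. Read counts were normalised to the haploid input and turned into Kd by a linear fit to BCL2-family pairs of known affinity, for each replicate. Each pool was mated in six replicate cultures.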

Variants are written as CDR1, CDR2 and CDR3 of the heavy chain (limits as in the source). Parent: GFTLNSYGIS, VIYSDGRRTFYGDSVK, GRAAGTFDS.
Each Kd is an estimate from the mating assay, the geometric mean of the replicates in which the pair was seen; lower is stronger.
"not detected" marks a missing value. The strain was present, yet no cells mated with the target were sequenced in any replicate, which points to weak or no binding.
Empty control strains, which show no peptide, gave a signal in 1% of pairings with all heavy chain designs; the median was 120 nM and 95% of these signals were weaker than 7.0 nM. No background was subtracted. Also given: how often the same scFv was detected with the empty control strains.
The authors averaged sequences with at least three values out of six and counted those with two or fewer as poor binders.
Of ten entries with the parent sequence, four were seen in most replicates (averages 2.2 nM to 240 nM), three in one and three in none, so single entries are noisy.
The range of this assay differs from that of the first round, and the authors advise against merging the two.

CDR-H1	CDR-H2	CDR-H3	apparent Kd	replicates with signal	empty controls
GFTLNSYQIS	VIYSDGRRTFYGDSVK	GMAAGTKDS	not detected	0/6	0/18
GKLLDEYGIS	VIYADGKRMVYAPSVK	GNLTDTLLV	not detected	0/6	1/18
GFHLNSYGIS	VIYSDGRRTFYIDSVK	GQTAGTFDS	28 nM	1/6	0/18
GFDLDEYGIS	VIYADGRRTFYADSVK	GNVAGTFDV	1.8 nM	6/6	0/18
GFDLNEYGIS	VIYADGMRTFYADSVK	GEIAGTFDQ	1.1 nM	6/6	3/18
GFDLNEYGIS	VIYADGRRTFYADSVK	GSEAGTFNV	220 pM	6/6	0/18
GFSLNSYGIS	VIYSDGRRTFYGDDVK	GRNAGTFDS	not detected	0/6	0/18
SFSLNSYGIS	VIYSDGRRTFYADSVK	GKTAGTFDS	3.0 nM	6/6	1/18
GFQLDEYGIS	VIYADGQRTAYKQKVK	GSDTGLMWF	not detected	0/6	0/18
GFDLNEYGIS	VIYADGKRTAYADKVK	GEVAGTFDV	330 pM	6/6	0/18
GFDLNEYGIS	VIYADGVRTFYADSVK	GNAAGTFDS	720 pM	6/6	0/18
GFTLNSYGIS	VIYSDGMRTFYGDSVK	GRIQGTFKS	not detected	0/6	0/18
GFSLNTYGIS	VIYSDGRRTFYADSVK	GEAAGTFDS	4.4 nM	6/6	0/18
GFDLDEYGIS	VIYADGRRTAYADSVK	GEVAGTFDQ	350 pM	6/6	0/18
GFDLNSYGIS	VIYSDGRRTFYGDSVK	GNAAGTFDN	4.2 nM	6/6	2/18
GFELNSYGIS	VIYADGRRTFYGDSVK	GRAAGTFKS	220 nM	2/6	0/18
GFSLNEYGIS	VIYSDGRRTFYGDTVK	GRTAGTFDS	790 pM	6/6	0/18
GFDLNSYGIS	VIYSDGTRTFYGDSVK	GRTAGTFDS	2.6 nM	6/6	0/18
KFTLNSYGIS	VIYSDGMRTFYGDSVK	GRAAGTFDS	not detected	0/6	0/18
GFDLNSYGIS	VIYSDGRRTFYIDSVK	GNAAGTFDT	120 nM	4/6	0/18
GFDLNEYGIS	VIYADGIRTFYADSVK	GNIAGTFDV	310 pM	6/6	1/18
KFDLNSYGIS	VIYSDGRRTFYQDSVK	GRQAGTFDS	930 pM	6/6	1/18
GFSLNSYGIS	VIYSDGRRTFYQDSVK	GRLAGTFDS	110 nM	5/6	0/18
GFDLDEYGIS	VIYADGKRTAYADSVK	GNVAGTFDI	100 pM	6/6	0/18
GFDLDEYGIS	VIYADGMRTAYADNVK	GEVAGTFDM	1.2 nM	6/6	0/18
GFDLDEYGIS	VIYADGKRTAYIDSVK	GNVAGTFDL	270 pM	6/6	0/18
GFDLNEYGIS	VIYADGRRTFYADSVK	GEHAGTFDI	430 pM	6/6	1/18
GFDLNEYGIS	VIYADGVRTAYADNVK	GNVAGTFDI	590 pM	6/6	0/18
GFTLNSYGIS	VIYADGRRTFYDDSVK	GRAAGLFDS	not detected	0/6	0/18
GFSLNSYGIS	VIYSDGRRTFYGDAVK	GRLAGTFDS	1.0 nM	6/6	0/18
GFDLNSYGIS	VIYSDGRRTFYADSVK	GKAAGTFDT	970 pM	6/6	0/18

The remaining entries, values ahead:

apparent Kd	replicates with signal	empty controls	CDR-H1	CDR-H2	CDR-H3
250 pM	6/6	1/18	GFDLDEYGIS	VIYADGVRTAYADKVK	GNVAGTFDV
not detected	0/6	0/18	GFTLHSYGIS	VIYSDGRRTFYGISVK	GRAAGTALS
910 pM	6/6	1/18	GFSLNSYGIS	VIYSDGRRTFYDDSVK	GQTAGTFDS
370 pM	6/6	1/18	GFDLNEYGIS	VIYSDGRRTFYGDQVK	GRTAGTFDK
1.3 µM	3/6	1/18	GFTLNDYGIS	VIYSDGRRTQYMDSVK	GRTAGTFDS
2.4 nM	1/6	0/18	GFTLNSYGIS	VIYSDGRRTFYGDSVK	GQTAGTFDR
not detected	0/6	0/18	GFDLNSYGIS	VIYSQGWRTFYGDSVK	GYAAGTADS
4.0 nM	6/6	0/18	GFDLNEYGIS	VIYADGMRTAYADNVK	GNQAGTFDI
400 pM	6/6	0/18	GFDLDEYGIS	VIYADGKRTAYTDSVK	GENAGTFDL
not detected	0/6	0/18	GFSLNAYGIS	VIYSDGRRTQYIDSVK	GRAAGTFDS
not detected	0/6	0/18	GFTLNEYGIS	VIYSDGRRTFYGDSVK	GRAAGDFDS
3.4 nM	6/6	1/18	GFDLNSYGIS	VIYSDGQRTFYVDSVK	GRTAGTFDS
not detected	0/6	0/18	GFSLEEYGIS	VIYADGMRTNYAEAVK	GNFDLQEGY
310 nM	6/6	1/18	GFTLDSYGIS	VIYSDGSRTFYGDSVK	GDAAGTFDS
not detected	0/6	0/18	TFTLNSYGIS	VIYSDGRRTSYGDSVK	GRAAGAFDS
not detected	0/6	2/18	GKALDEYGIS	VIYADGKRTFYSNTVK	GEDGFFYDQ
310 pM	6/6	0/18	GFDLNEYGIS	VIYADGRRTFYQDSVK	GNVAGTFDV
270 pM	6/6	1/18	GFDLNEYGIS	VIYADGRRTAYVDSVK	GQVAGTFDV
not detected	0/6	0/18	GFNLLEYGIS	VIYADGMRQAYVEDVK	GTNGVSVFF
620 pM	6/6	1/18	GFDINEYGIS	VIYADGRRTYYADSVK	GEAAGTFDE
440 pM	6/6	0/18	GFDLNEYGIS	VIYADGRRTYYADSVK	GNQAGTFDV
7.9 nM	6/6	0/18	GFALNDYGIS	VIYSDGRRTFYGNSVK	GRADGTFDS
5.8 nM	6/6	0/18	GFTLNDYGIS	VIYSDGKRTFYGDSVK	GRAAGTFDS
not detected	0/6	0/18	GDSLNEYGIS	VIYADGKRMVYADSVK	GSESGWFDI
61 nM	6/6	0/18	GFELNSYGIS	VIYSDGRRTFYVDSVK	GKAAGTFDT
not detected	0/6	0/18	GFDIDEYGIS	VIYADGTRTAVDPSFK	GQMAGFFTN
not detected	0/6	0/18	GFTLNMYGIS	VIYSDGRRTFYGDSVK	GRAAGTMDS
not detected	0/6	0/18	GFTLNSYGIS	VIYSDGRRTFYGDEVK	GRAVGTFDS
not detected	0/6	0/18	GFSLNDYGIS	VIYSDGRRTFYGDSVK	GRAALTFDK
not detected	0/6	0/18	GFTLNSYGIS	VIYSDGRRTFYGDFVK	GRAGGTFDL
not detected	0/6	0/18	GFTLNSYGIS	VIYSDGRRTFYGDTVK	GRAAGRFRS
4.1 nM	6/6	0/18	GFSLNNYGIS	VIYSDGRRTFYTDSVK	GRTAGTFDS

The 8 strongest on average among those seen in every replicate, once more:

| CDR-H1 | CDR-H2 | CDR-H3 | apparent Kd | replicates with signal | empty controls |
|---|---|---|---|---|---|
| GFDLDEYGIS | VIYADGKRTAYADSVK | GNVAGTFDI | 100 pM | 6/6 | 0/18 |
| GFDLNEYGIS | VIYADGRRTFYADSVK | GSEAGTFNV | 220 pM | 6/6 | 0/18 |
| GFDLDEYGIS | VIYADGVRTAYADKVK | GNVAGTFDV | 250 pM | 6/6 | 1/18 |
| GFDLNEYGIS | VIYADGRRTAYVDSVK | GQVAGTFDV | 270 pM | 6/6 | 1/18 |
| GFDLDEYGIS | VIYADGKRTAYIDSVK | GNVAGTFDL | 270 pM | 6/6 | 0/18 |
| GFDLNEYGIS | VIYADGRRTFYQDSVK | GNVAGTFDV | 310 pM | 6/6 | 0/18 |
| GFDLNEYGIS | VIYADGIRTFYADSVK | GNIAGTFDV | 310 pM | 6/6 | 1/18 |
| GFDLNEYGIS | VIYADGKRTAYADKVK | GEVAGTFDV | 330 pM | 6/6 | 0/18 |